Laboratory results reported in publication PMC12509120, “Complex Investigation of the Similarities and Differences between Ten Commercially Available Human Serum Albumin Preparations” (ACS Omega, 2025).

Assays:
[1] = Fluorescence quenching of HSA by site I marker furosemide; assay type: binding; conditions: HSA 2 μM, furosemide 0–6 μM, PBS pH 7.4, λex 295 nm, λem 340 nm, mean ± SD
Experimental: (§1) Fluorescence measurements were performed with a Hitachi F-4500 fluorescence spectrophotometer (Tokyo, Japan) at room temperature. Emission spectra of HSA solutions were recorded using 295 nm excitation wavelength. In quenching studies, increasing levels (final concentrations: 0, 1, 2, 3, 4, 5, and 6 μM) of site I (furosemide and iodipamide), site II (diazepam and ketoprofen), or heme site (biliverdin and methyl orange) markers were added to albumin (2 μM), and then their quenching effects were evaluated at 340 nm. After background correction, the inner-filter effects of ligands were also corrected based on the following equation: Icor=Iobs×10^(Aex+Aem)/2 where I cor and I obs are the corrected and observed fluorescence emission signals at 340 nm, respectively. Furthermore, A ex and A em are the absorbance values of the site markers applied at 295 and 340 nm, respectively. Stern–Volmer quenching constants (K SV) were determined with linear fitting, employing the following equation: I0/I=1+KSV×[Q] where I 0 marks the fluorescence emission signal of HSA without the ligand, I denotes the emission intensity of HSA in the presence of the ligand, and [Q] is the molar concentration of the quencher.

[2] = Fluorescence quenching of HSA by site I marker iodipamide; assay type: binding; conditions: HSA 2 μM, iodipamide 0–6 μM, PBS pH 7.4, λex 295 nm, λem 340 nm, mean ± SD
Experimental: as §1

[3] = Fluorescence quenching of HSA by site II marker diazepam; assay type: binding; conditions: HSA 2 μM; for Stern–Volmer quenching constant K SV, diazepam–HSA complex: diazepam 0–6 μM, PBS pH 7.4, λex 295 nm, λem 340 nm, mean ± SD; for Quenching effect of diazepam on the emission signal of albumin: ligand 0–6 μM, relative to other albumins
Experimental: as §1

[4] = Fluorescence quenching of HSA by site II marker ketoprofen; assay type: binding; conditions: HSA 2 μM, ketoprofen 0–6 μM, PBS pH 7.4, λex 295 nm, λem 340 nm, mean ± SD
Experimental: as §1

[5] = Fluorescence quenching of HSA by heme site marker biliverdin; assay type: binding; conditions: HSA 2 μM; for Stern–Volmer quenching constant K SV, biliverdin–HSA complex / K SV of biliverdin–HSA complex: biliverdin 0–6 μM, λem 340 nm; for Stern–Volmer quenching constant K SV, biliverdin–HSA complex: PBS pH 7.4, λex 295 nm, mean ± SD
Experimental: as §1

[6] = Fluorescence quenching of HSA by heme site marker methyl orange; assay type: binding; conditions: HSA 2 μM; for Stern–Volmer quenching constant K SV, methyl orange–HSA complex: methyl orange 0–6 μM, PBS pH 7.4, λex 295 nm, λem 340 nm, mean ± SD
Experimental: as §1

[7] = Ultrafiltration with site I marker warfarin; assay type: binding; conditions: warfarin 1.0 μM, HSA 3.5 or 6.0 μM, PBS pH 7.4, 30 kDa filter
Experimental: (§2) In ultrafiltration experiments, we applied our previously reported models. , Briefly, Amicon Ultra centrifugal filters (30 kDa; Merck, Darmstadt, Germany) were washed once with water and once with PBS (each 500 μL). Then, samples (500 μL) were filtered for 10 min (centrifugation: 7500g, 25 °C, fixed angle rotor). Since HSA and albumin-bound molecules cannot pass through the filter with a 30 kDa cutoff value, HSA retains the bound ligand molecules, resulting in the decreased concentrations of site markers in the filtrate. , In the first experiment, the site I marker warfarin (1.0 μM) was filtered without and with HSA (3.5 or 6.0 μM). In the second experiment, the site II marker naproxen (1.0 μM) was filtered in the absence and presence of albumin (1.0 or 1.6 μM). After ultrafiltration, the concentrations of warfarin and naproxen were quantified in the filtrates with the previously described HPLC-FLD and HPLC-UV methods, respectively. ,

[8] = Ultrafiltration with site II marker naproxen; assay type: binding; conditions: naproxen 1.0 μM, HSA 1.0 or 1.6 μM, PBS, 30 kDa filter
Experimental: as §2

[9] = Fluorescence emission spectra of HSA solutions; assay type: physicochemical; conditions: HSA 2 μM in PBS pH 7.4, λex 295 nm; for Fluorescence emission signal: compared between preparations
Experimental: as §1
Fig. S3: Fluorescence emission spectra of HSA3 (4 μM) in PBS, and the emission signals measured in the
filtrates and in the supernatant (λ ex = 295 nm), where samples were diluted according to the nominal 4 μM
albumin concentration. Each process described below was also performed with PBS (without the protein), where
In ultrafiltration experiments, a 500 μL volume of 20 μM HSA3 solutions (dissolved in PBS or in 25 v/v%
isopropanol–PBS mixture) were filtered (10 min, 7500 g, room temperature) using Amicon Ultra centrifugal
filters (30 kDa; Merck, Darmstadt, Germany). Thereafter, the filtrate was homogenized and diluted to fivefold
volume with PBS (final isopropanol level ≈ 5 v/v%).
In the other experiment, a 150 μL volume of 240 μM HSA3 solution (dissolved in PBS) was prepared, then 300
μL of acetonitrile was added. After intensive vortexing, the precipitated protein was removed by centrifugation
(10 min, 14,000 g, room temperature). Thereafter, the supernatant was diluted to 20-fold with PBS (final
acetonitrile level ≈ 3.3 v/v%).
(1 picture or pasted object on this page, not shown here)

[10] = ligand 0–6 μM, relative to other albumins

| Substance | Stern–Volmer quenching constant K SV, furosemide–HSA complex [1] | Stern–Volmer quenching constant K SV, iodipamide–HSA complex [2] | Stern–Volmer quenching constant K SV, diazepam–HSA complex [3] | Stern–Volmer quenching constant K SV, ketoprofen–HSA complex [4] | Stern–Volmer quenching constant K SV, biliverdin–HSA complex [5] | K SV of biliverdin–HSA complex [5] [L/mol] | Stern–Volmer quenching constant K SV, methyl orange–HSA complex [6] | Filtered fraction of warfarin in the presence of HSA [7] | Filtered concentration of naproxen in the presence of HSA [8] | Quenching effect of biliverdin on the emission signal of albumin [5, 10] | Quenching effect of methyl orange on the emission signal of albumin [6, 10] | Fluorescence emission signal [9] | Fluorescence emission wavelength maximum [9] [nm] | Quenching effect of diazepam on the emission signal of albumin [3] |
| --- | --- | --- | --- | --- | --- | --- | --- | --- | --- | --- | --- | --- | --- | --- |
| HSA1: Human serum albumin preparation, Merck (Sigma-Aldrich) A1653, lot SLCD1119, lyophilized powder | 0.96 ± 0.06 × 10^–5 L/mol | 3.06 ± 0.08 × 10^–5 L/mol | 0.41 ± 0.02 × 10^–5 L/mol | 0.41 ± 0.03 × 10^–5 L/mol | 2.78 ± 0.12 × 10^–5 L/mol | 260000 to 380000 | 0.61 ± 0.07 × 10^–5 L/mol | very similar decreases | comparable changes |  |  |  |  |  |
| HSA2: Human serum albumin preparation, Merck (Sigma-Aldrich) A9511, lot SLBS5934, lyophilized powder | 1.15 ± 0.07 × 10^–5 L/mol | 2.63 ± 0.07 × 10^–5 L/mol | 0.30 ± 0.00 × 10^–5 L/mol | 0.50 ± 0.01 × 10^–5 L/mol | 5.34 ± 0.12 × 10^–5 L/mol |  | 1.24 ± 0.02 × 10^–5 L/mol | considerably higher | higher concentrations | somewhat stronger impacts | largest changes | lowest emission signal |  |  |
| HSA4: Human serum albumin preparation, Merck (EMD Millipore) 12666, lot 3856206, low heavy metals | 1.15 ± 0.11 × 10^–5 L/mol | 4.96 ± 0.10 × 10^–5 L/mol | 0.30 ± 0.01 × 10^–5 L/mol | 0.40 ± 0.02 × 10^–5 L/mol | 3.56 ± 0.11 × 10^–5 L/mol | 260000 to 380000 | 0.73 ± 0.06 × 10^–5 L/mol | very similar decreases | comparable changes |  |  |  |  |  |
| HSA5: Human serum albumin preparation, Merck (EMD Millipore) 126654, lot 3870449, lyophilized powder | 1.15 ± 0.05 × 10^–5 L/mol | 5.10 ± 0.11 × 10^–5 L/mol | 0.27 ± 0.01 × 10^–5 L/mol | 0.39 ± 0.01 × 10^–5 L/mol | 3.69 ± 0.14 × 10^–5 L/mol | 260000 to 380000 | 0.73 ± 0.03 × 10^–5 L/mol | very similar decreases | comparable changes |  |  |  |  |  |
| HSA6: Human serum albumin preparation, Merck (EMD Millipore) SRP6516, lot 8A24L75460, lyophilized powder | 1.22 ± 0.11 × 10^–5 L/mol | 3.54 ± 0.12 × 10^–5 L/mol | 0.34 ± 0.04 × 10^–5 L/mol | 0.42 ± 0.04 × 10^–5 L/mol | 2.96 ± 0.15 × 10^–5 L/mol | 260000 to 380000 | 0.69 ± 0.02 × 10^–5 L/mol | very similar decreases | comparable changes |  |  | higher | ~345 |  |
| HSA7: Human serum albumin preparation, Merck (Sigma-Aldrich) A1887, lot SLCB2530, essential fatty acid free | 0.95 ± 0.04 × 10^–5 L/mol | 3.71 ± 0.00 × 10^–5 L/mol | 0.57 ± 0.02 × 10^–5 L/mol | 0.45 ± 0.01 × 10^–5 L/mol | 2.61 ± 0.10 × 10^–5 L/mol | 260000 to 380000 | 0.49 ± 0.04 × 10^–5 L/mol | somewhat lower values | lower levels |  |  |  |  | largest changes |
| HSA9: Human serum albumin preparation, Merck (Sigma-Aldrich) A3782, lot SLCM4058, fatty acid free and globulin free | 1.10 ± 0.01 × 10^–5 L/mol | 5.97 ± 0.09 × 10^–5 L/mol | 0.67 ± 0.01 × 10^–5 L/mol | 0.48 ± 0.01 × 10^–5 L/mol | 2.94 ± 0.21 × 10^–5 L/mol | 260000 to 380000 | 0.54 ± 0.03 × 10^–5 L/mol | somewhat lower values | lower levels |  |  |  |  | largest changes |
